In patent US20160279108A1, “TARGETED MTOR INHIBITORS” (UNIVERSITY OF KANSAS, priority 2015, published 2016):

What was measured:
MDA-MB-468 cells = details: CD44 positive MDA-MB-468 cells, 10 μM, p=0.027
[1] = In vitro drug release from HA-drug conjugates by dialysis; format: physicochemical
Procedure: To prevent bacteria growth, 0.05% sodium azide was added to the serum release medium, and the medium was changed several times a day to maintain sink conditions.

[2] = Tissue distribution in tumor-bearing mice; format: in vivo, BALB/c mice
Procedure: Drug tissue distribution was determined in female BALB/c mice (n=5). Tissue samples (50 mg) in 500 μL PBS were homogenized using a Tissue Tearor (BioSpec Products, Inc., Bartivesville, Okla.). The homogenized tissue was mixed with 250 μL ZnSO4 and 500 μL methanol. The mixture solution was centrifuged and the supernatant was analyzed by LC/MS.
In the tissue distribution study, BLAB/c mice were administered the drugs 12 h before being euthanized. Major organs (liver, kidneys, hear, spleen, lungs, brain, muscle), tumor and lymph nodes were excised and lightly washed with PBS. The organs were stored at −80° C. until analyzed by LC/MS.

[3] = Pharmacokinetics study in rats; format: in vivo, Sprague-Dawley rats; details: for AUC0→∞ greater than that of the free drug / total body clearance slower than that of the free drug: HA-L-Rapa s.c. vs free rapamycin i.p.
Procedure: Whole blood was withdrawn (100 μL) from the tail vein at 0 min, 5 min, 30 min, 1 h, 2 h, 4 h, 6 h, 12 h, 24 h and 48 h after dosing and placed in heparinized tubes (BD Vacutainer® Lithium Heparin 37 USP unit, BD Franklin Lakes, N.J.). The whole blood was centrifuged at 15,000×g for 10 min, and the plasma was frozen at −80° C. until analyzed. The animal use statement was approved by the University of Kansas Institutional Animal Care and Use Committee. Plasma samples and stander curves were prepared using a procedure reported previously.

[4] = mice, 12 h post 10 mg/kg equivalent rapamycin, i.p. (free rapamycin), s.c. (HA-L-Rapa), Mean ± SD, n=5
[5] = listed as rapamycin conjugated to hyaluronic acid by a 3-amino-4-methoxy-benzoic acid link
[6] = free rapamycin i.p., HA-L-Rapa s.c., Mean ± SD, n=3

HA-Rapamycin-42-(3′-amino-4′-methoxy)benzoate [HA-L-Rapa]
decrease of cell-viability compared to rapamycin (MDA-MB-468 cells): 8.72% | rate constant of release ([1]; PBS, 37° C.): 0.01767 h⁻¹ | rate constant of release ([1]; serum): 0.00344 h⁻¹ | drug concentration in lung greater than the free drug treatment group ([2]; 12 h after s.c. injection): 3.23 fold | drug concentration in lymph greater than the free drug treatment group ([2]; 12 h after s.c. injection): 2.78 fold | drug concentration in tumor greater than the free drug treatment group ([2]; 12 h after s.c. injection): 1.56 fold | Mean concentration of rapamycin in Brain [2, 4]: 195.01 ± 48.56 µg/g | Mean concentration of rapamycin in Heart [2, 4]: 358.88 ± 110.31 µg/g | Mean concentration of rapamycin in Kidneys [2, 4]: 495.04 ± 349.05 µg/g | Mean concentration of rapamycin in Liver [2, 4]: 565.56 ± 54.06 µg/g | Mean concentration of rapamycin in Lungs [2, 4]: 1990.00 ± 634.80 µg/g | Mean concentration of rapamycin in Lymph [2, 4]: 1972.78 ± 634.80 µg/g | Mean concentration of rapamycin in Muscle [2, 4]: 927.64 ± 453.48 µg/g | Mean concentration of rapamycin in Spleen [2, 4]: 1386.31 ± 342.71 µg/g | Mean concentration of rapamycin in Tumor [2, 4]: 1931.84 ± 195.46 µg/g | AUC0→∞ greater than that of the free drug [3]: 2.78 fold | total body clearance slower than that of the free drug [3]: 2.09 fold | AUC0→∞ greater than that of the free drug [3, 5]: 2.96 fold | total body clearance slower than that of the free drug [3, 5]: 8.82 fold | Vd ([3]; free rapamycin i.p., HA-L-Rapa s.c., 10 mg/kg equivalent rapamycin, Mean ± SD, n=3): 12.88 ± 5.24 L/kg | AUC0→∞ [3, 6]: 6.57 ± 0.92 µg·h/mL | CI [3, 6]: 2.02 ± 0.73 L/kg/h | t1/2 [3, 6]: 27.95 ± 13.33 h | Cmax ([3]; plasma, free rapamycin i.p., HA-L-Rapa s.c., Mean ± SD, n=3): 544.84 ± 123.56 ng/mL
